Data: ChEMBL document CHEMBL5500414 (J Med Chem, 2024)
Calls of active or inactive are those of the source. No cut-off for these calls is given here.

The chains behind the UniProt entries cited, without tags or fusion partners.
UniProt Q07820, whole entry, looked up: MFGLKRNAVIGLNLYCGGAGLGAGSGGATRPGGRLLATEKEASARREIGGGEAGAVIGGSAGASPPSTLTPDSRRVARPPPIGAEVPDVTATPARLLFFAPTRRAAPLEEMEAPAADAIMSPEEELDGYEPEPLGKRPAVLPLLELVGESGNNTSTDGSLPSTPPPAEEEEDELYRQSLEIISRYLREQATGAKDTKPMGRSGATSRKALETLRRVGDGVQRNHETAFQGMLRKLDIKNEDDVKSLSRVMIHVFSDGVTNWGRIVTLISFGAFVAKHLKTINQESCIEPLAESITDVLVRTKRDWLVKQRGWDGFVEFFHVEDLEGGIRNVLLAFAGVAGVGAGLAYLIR
UniProt O43521, whole entry, looked up: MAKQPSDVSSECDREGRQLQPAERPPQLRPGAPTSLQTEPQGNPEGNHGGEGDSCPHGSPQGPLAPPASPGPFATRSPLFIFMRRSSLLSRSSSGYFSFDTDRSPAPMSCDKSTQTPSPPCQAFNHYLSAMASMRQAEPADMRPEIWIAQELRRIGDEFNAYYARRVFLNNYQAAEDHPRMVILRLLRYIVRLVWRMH

Experiments:
[1] = target: T1, Bcl-2-related protein A1 (Homo sapiens) (UniProt Q16548); experiment: Inhibition of BFL-1 in BFL-1 overexpressing isogenic human MV4-11 cells assessed as early apoptotic cells at 15 uM measured after 48 hrs in presence of doxycycline by flow cytometry based Annexin V-PE/7-ADD Apoptosis detection kit; type: cell-based; parameters: scale not given: the % may be the effect or the level left
T1 sequence (whole entry): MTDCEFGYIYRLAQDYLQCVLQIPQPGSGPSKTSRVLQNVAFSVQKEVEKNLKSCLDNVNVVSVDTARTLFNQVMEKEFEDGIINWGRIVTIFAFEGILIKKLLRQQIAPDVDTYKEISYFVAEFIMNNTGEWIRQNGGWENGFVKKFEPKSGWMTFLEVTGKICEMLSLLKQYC

[2] = target: T1, Bcl-2-related protein A1 (Homo sapiens); experiment: Inhibition of BFL-1 in BFL-1 overexpressing isogenic human MOLM-13 cells assessed as enhancement of venetoclax-induced increase in cleaved PARP level at 15 uM in presence of doxycycline by Western blot analysis; type: cell-based
[3] = target: T1, Bcl-2-related protein A1 (Homo sapiens); experiment: Inhibition of BFL-1 in BFL-1 overexpressing isogenic human MOLM-13 cells assessed as enhancement of 1 uM venetoclax-induced late apoptotic cells at 20 uM measured after 24 hrs in presence of doxycycline by flow cytometry based Annexin V-PE/7-ADD Apoptosis detection kit; type: cell-based; parameters: scale not given: the % may be the effect or the level left
Pfeiffer [4] = experiment: Induction of apoptosis in human Pfeiffer cells assessed as increase in cytochrome c release in mitochondria measured after 5 hrs by Western blot analysis; type: functional, cell-based; conditions: dose 10-20 µM
[5] = target: T1, Bcl-2-related protein A1 (Homo sapiens); experiment: Inhibition of BFL-1 in BFL-1 overexpressing isogenic human MV4-11 cells assessed as enhancement of 3 uM venetoclax-induced late apoptotic cells at 10 uM measured after 48 hrs in presence of doxycycline by flow cytometry based Annexin V-PE/7-ADD Apoptosis detection kit; type: cell-based; parameters: scale not given: the % may be the effect or the level left
[6] = target: T1, Bcl-2-related protein A1 (Homo sapiens); experiment: Inhibition of BFL-1 in BFL-1 overexpressing isogenic human MOLM-13 cells assessed as early apoptotic cells at 15 uM measured after 24 hrs in presence of doxycycline by flow cytometry based Annexin V-PE/7-ADD Apoptosis detection kit; type: cell-based; parameters: scale not given: the % may be the effect or the level left
[7] = target: T1, Bcl-2-related protein A1 (Homo sapiens); experiment: Inhibition of BFL-1 in BFL-1 overexpressing isogenic human MV4-11 cells assessed as early apoptotic cells at 10 uM measured after 48 hrs in presence of doxycycline by flow cytometry based Annexin V-PE/7-ADD Apoptosis detection kit; type: cell-based; parameters: scale not given: the % may be the effect or the level left
[8] = target: T1, Bcl-2-related protein A1 (Homo sapiens); experiment: Inhibition of BFL-1 in BFL-1 overexpressing isogenic human MOLM-13 cells assessed as enhancement of 3 uM venetoclax-induced early apoptotic cells at 15 uM measured after 24 hrs in presence of doxycycline by flow cytometry based Annexin V-PE/7-ADD Apoptosis detection kit; type: cell-based; parameters: scale not given: the % may be the effect or the level left
[9] = target: T1, Bcl-2-related protein A1 (Homo sapiens); experiment: Inhibition of BFL-1 in BFL-1 overexpressing isogenic human MV4-11 cells assessed as late apoptotic cells at 10 uM measured after 48 hrs in presence of doxycycline by flow cytometry based Annexin V-PE/7-ADD Apoptosis detection kit; type: cell-based; parameters: scale not given: the % may be the effect or the level left
Pfeiffer [10] = experiment: Induction of apoptosis in human Pfeiffer cells assessed as increase in cleaved PARP level measured after 5 hrs by Western blot analysis; type: functional, cell-based; conditions: dose 10-20 µM
[11] = target: T1, Bcl-2-related protein A1 (Homo sapiens); experiment: Inhibition of BFL-1 in BFL-1 overexpressing isogenic human MV4-11 cells assessed as late apoptotic cells at 15 uM measured after 48 hrs in presence of doxycycline by flow cytometry based Annexin V-PE/7-ADD Apoptosis detection kit; type: cell-based; parameters: scale not given: the % may be the effect or the level left
[12] = target: T1, Bcl-2-related protein A1 (Homo sapiens); experiment: Inhibition of BFL-1 in BFL-1 overexpressing isogenic human MOLM-13 cells assessed as enhancement of 1 uM venetoclax-induced late apoptotic cells at 15 uM measured after 24 hrs in presence of doxycycline by flow cytometry based Annexin V-PE/7-ADD Apoptosis detection kit; type: cell-based; parameters: scale not given: the % may be the effect or the level left
[13] = target: T1, Bcl-2-related protein A1 (Homo sapiens); experiment: Inhibition of BFL-1 in BFL-1 overexpressing isogenic human MV4-11 cells assessed as enhancement of 3 uM venetoclax-induced early apoptotic cells at 15 uM measured after 48 hrs in presence of doxycycline by flow cytometry based Annexin V-PE/7-ADD Apoptosis detection kit; type: cell-based; parameters: scale not given: the % may be the effect or the level left
[14] = target: T1, Bcl-2-related protein A1 (Homo sapiens); experiment: Inhibition of BFL-1 in BFL-1 overexpressing isogenic human MV4-11 cells assessed as early apoptotic cells at 20 uM measured after 48 hrs in presence of doxycycline by flow cytometry based Annexin V-PE/7-ADD Apoptosis detection kit; type: cell-based; parameters: scale not given: the % may be the effect or the level left
[15] = target: T1, Bcl-2-related protein A1 (Homo sapiens); experiment: Inhibition of BFL-1 in BFL-1 overexpressing isogenic human MV4-11 cells assessed as enhancement of 3 uM venetoclax-induced late apoptotic cells at 15 uM measured after 48 hrs in presence of doxycycline by flow cytometry based Annexin V-PE/7-ADD Apoptosis detection kit; type: cell-based; parameters: scale not given: the % may be the effect or the level left
[16] = target: T1, Bcl-2-related protein A1 (Homo sapiens); experiment: Inhibition of BFL-1 in BFL-1 overexpressing isogenic human MOLM-13 cells assessed as enhancement of 3 uM venetoclax-induced early apoptotic cells at 10 uM measured after 24 hrs in presence of doxycycline by flow cytometry based Annexin V-PE/7-ADD Apoptosis detection kit; type: cell-based; parameters: scale not given: the % may be the effect or the level left
[17] = target: T1, Bcl-2-related protein A1 (Homo sapiens); experiment: Inhibition of BFL-1 in BFL-1 overexpressing isogenic human MOLM-13 cells assessed as enhancement of 1 uM venetoclax-induced early apoptotic cells at 15 uM measured after 24 hrs in presence of doxycycline by flow cytometry based Annexin V-PE/7-ADD Apoptosis detection kit; type: cell-based; parameters: scale not given: the % may be the effect or the level left
[18] = target: T1, Bcl-2-related protein A1 (Homo sapiens); experiment: Inhibition of BFL-1 in BFL-1 overexpressing isogenic human MOLM-13 cells assessed as enhancement of venetoclax-induced increase in cytochrome c release in mitochondria at 15 uM in presence of doxycycline by Western blot analysis
[19] = target: T1, Bcl-2-related protein A1 (Homo sapiens); experiment: Inhibition of BFL-1 in BFL-1 overexpressing isogenic human MOLM-13 cells assessed as enhancement of 1 uM venetoclax-induced early apoptotic cells at 10 uM measured after 24 hrs in presence of doxycycline by flow cytometry based Annexin V-PE/7-ADD Apoptosis detection kit; type: cell-based; parameters: scale not given: the % may be the effect or the level left
[20] = target: Induced myeloid leukemia cell differentiation protein Mcl-1/Bcl-2-like protein 11 (Homo sapiens) (UniProt Q07820+O43521); experiment: Inhibition of MCL-1/BIM interaction in human Pfeiffer cells assessed as decrease in BIM-associated BFL-1 level at 20 uM measured after 5 hrs by Co-IP assay; type: cell-based
MOLM-13 = experiment: Antiproliferative activity against BFL-1 overexpressing isogenic human MOLM-13 cells assessed as inhibitory rate in presence of doxycycline; type: functional, cell-based
[21] = target: T1, Bcl-2-related protein A1 (Homo sapiens); experiment: Inhibition of BFL-1 in BFL-1 overexpressing isogenic human MV4-11 cells assessed as enhancement of 3 uM venetoclax-induced late apoptotic cells at 20 uM measured after 48 hrs in presence of doxycycline by flow cytometry based Annexin V-PE/7-ADD Apoptosis detection kit; type: cell-based; parameters: scale not given: the % may be the effect or the level left
[22] = target: T1, Bcl-2-related protein A1 (Homo sapiens); experiment: Inhibition of BFL-1 in BFL-1 overexpressing isogenic human MV4-11 cells assessed as enhancement of venetoclax-induced increase in cleaved PARP level at 20 uM in presence of doxycycline by Western blot analysis; type: cell-based
[23] = target: T1, Bcl-2-related protein A1 (Homo sapiens); experiment: Inhibition of BFL-1 in BFL-1 overexpressing isogenic human MV4-11 cells assessed as enhancement of venetoclax-induced increase in cytochrome c release in mitochondria at 20 uM in presence of doxycycline by Western blot analysis
[24] = target: T1, Bcl-2-related protein A1 (Homo sapiens); experiment: Inhibition of BFL-1 in BFL-1 overexpressing isogenic human MOLM-13 cells assessed as early apoptotic cells at 20 uM measured after 24 hrs in presence of doxycycline by flow cytometry based Annexin V-PE/7-ADD Apoptosis detection kit; type: cell-based; parameters: scale not given: the % may be the effect or the level left

Activity [1]: 4.36% | Activity [2]: Active | Activity [3]: 13.5% | Activity [5]: 44.1% | Activity [6]: 18.5% | Activity [7]: 5.52% | Activity [8]: 77.6% | Activity [9]: 4.58% | Activity [11]: 6.38% | Activity [12]: 9.59% | Activity [13]: 10.5% | Activity [14]: 4.55% | Activity [15]: 54% | Activity [16]: 64.6% | Activity [17]: 74.9% | Activity [18]: Active | Activity [19]: 56.8% | Activity [20]: inactive | Activity [21]: 83.7% | Activity [22]: Active | Activity [23]: Active | Activity [24]: 65.7%
Structure (SMILES): C=CC(=O)Nc1ccc2c(c1)CCC(CN1CCN(c3ccc(C(=O)O)c(Oc4cnc5[nH]ccc5c4)c3)CC1)=C2c1ccc(Cl)cc1CC
Activity (Pfeiffer [4]): Dose-Dependent Effect | Activity (Pfeiffer [10]): Dose-Dependent Effect | Activity (MOLM-13): Dose-Dependent Effect
